Laboratory results taken from patent US10066204B2, “Chemically labile peptide-presenting surfaces for cellular self-assembly” (Wisconsin Alumni Research Foundation, priority 2013, dated 2018).

Settings: for peptide content on SAMs (XPS): over 7 days incubated in phosphate-buffered saline; for loss of surface peptide (XPS): 100% COOH SAMs, 7 days in serum-free cell culture medium (E8), no cells

Row | Substance | peptide content on SAMs (XPS) | loss of surface peptide (XPS)
1 | CRGDS [reference compound] | remains unchanged | 
2 | acetylated-CRGDS | decreases significantly | 
3 | cyclo(RGDFDC) | decreases significantly | approximately 25%
4 | cyclo(RGDFDK) [reference compound] | remains unchanged | no significant loss of peptide
